PubChem BioAssay AID720700 (The Scripps Research Institute Molecular Screening Center, 2013)
Only a part is listed here, and it is no random draw. Active and inactive are the calls of the source. Cut-off read from the data, not from the text of the source: active = inhibition above about 9.5%; inactive = the rest.

Amino acid sequences for entries named in this document (tags omitted).
UniProt P19174, whole entry: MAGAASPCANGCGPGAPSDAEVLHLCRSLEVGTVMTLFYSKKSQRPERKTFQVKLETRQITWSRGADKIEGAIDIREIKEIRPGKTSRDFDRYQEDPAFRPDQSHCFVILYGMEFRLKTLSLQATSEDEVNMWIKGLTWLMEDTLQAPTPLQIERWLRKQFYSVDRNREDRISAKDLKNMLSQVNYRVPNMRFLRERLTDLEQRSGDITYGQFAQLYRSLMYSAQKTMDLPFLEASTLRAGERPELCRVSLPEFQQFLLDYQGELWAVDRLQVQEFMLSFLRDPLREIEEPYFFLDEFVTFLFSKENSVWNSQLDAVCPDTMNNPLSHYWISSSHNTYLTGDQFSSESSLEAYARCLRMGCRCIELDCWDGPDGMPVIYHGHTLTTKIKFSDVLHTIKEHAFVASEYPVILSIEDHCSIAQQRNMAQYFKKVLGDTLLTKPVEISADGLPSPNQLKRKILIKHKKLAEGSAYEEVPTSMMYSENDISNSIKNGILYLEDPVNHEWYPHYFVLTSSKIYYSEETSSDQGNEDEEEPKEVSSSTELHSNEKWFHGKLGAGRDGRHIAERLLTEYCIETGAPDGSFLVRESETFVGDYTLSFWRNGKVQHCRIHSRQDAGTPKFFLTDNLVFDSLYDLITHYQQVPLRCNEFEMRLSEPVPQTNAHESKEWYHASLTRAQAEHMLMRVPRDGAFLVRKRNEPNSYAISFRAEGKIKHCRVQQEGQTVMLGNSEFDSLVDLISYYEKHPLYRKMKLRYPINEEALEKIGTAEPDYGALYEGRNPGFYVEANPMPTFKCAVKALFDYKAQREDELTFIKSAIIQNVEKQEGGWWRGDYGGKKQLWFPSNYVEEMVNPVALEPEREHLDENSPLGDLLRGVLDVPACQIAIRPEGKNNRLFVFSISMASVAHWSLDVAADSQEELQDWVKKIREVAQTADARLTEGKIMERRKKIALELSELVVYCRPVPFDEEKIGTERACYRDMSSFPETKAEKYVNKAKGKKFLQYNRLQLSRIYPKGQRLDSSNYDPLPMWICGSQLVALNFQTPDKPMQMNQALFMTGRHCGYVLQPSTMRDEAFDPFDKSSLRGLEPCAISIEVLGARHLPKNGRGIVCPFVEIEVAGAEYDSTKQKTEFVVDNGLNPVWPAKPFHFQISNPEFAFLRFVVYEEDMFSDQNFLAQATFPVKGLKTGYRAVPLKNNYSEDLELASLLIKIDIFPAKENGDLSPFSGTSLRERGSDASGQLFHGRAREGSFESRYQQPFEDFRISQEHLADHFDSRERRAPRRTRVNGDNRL

Target: 1-phosphatidylinositol 4,5-bisphosphate phosphodiesterase gamma-1 (Homo sapiens) (UniProt P19174)
Assay: blockers of human PLCG1 activity – biochemical, fluorescence, purified enzyme, primary screen (AID 720700)
Conditions: purified PLC-gamma1, fluorogenic substrate, at 12.2 µM, hits give high values

**Q.** How did the inhibition turn out when CCC(=O)N(c1ccccc1)C1(COC)CCN(CCc2cccs2)CC1 was run?
**A.** Its inhibition is inactive: -3.39%.

**Q.** How did the inhibition turn out when CCC(=O)N(c1ccccc1)C1(COC)CCN(CCn2nnn(CC)c2=O)CC1 was run?
**A.** The inhibition was inactive: 3.92%.
